The list shows a part of the results, in another mix than the full data. Some salts and complexes are drawn in separate pieces, as the source files them; their charges need not balance. Active and inactive are the calls of the source.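 How the source made its calls: active means inhibition above the mean of all tested compounds plus 3 SD, set per campaign (cut at about 25% in these data); inactive means the rest.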

Protein sequences, listed by entry. Tags and fused reporters are not part of them.
UniProt O95551, whole entry: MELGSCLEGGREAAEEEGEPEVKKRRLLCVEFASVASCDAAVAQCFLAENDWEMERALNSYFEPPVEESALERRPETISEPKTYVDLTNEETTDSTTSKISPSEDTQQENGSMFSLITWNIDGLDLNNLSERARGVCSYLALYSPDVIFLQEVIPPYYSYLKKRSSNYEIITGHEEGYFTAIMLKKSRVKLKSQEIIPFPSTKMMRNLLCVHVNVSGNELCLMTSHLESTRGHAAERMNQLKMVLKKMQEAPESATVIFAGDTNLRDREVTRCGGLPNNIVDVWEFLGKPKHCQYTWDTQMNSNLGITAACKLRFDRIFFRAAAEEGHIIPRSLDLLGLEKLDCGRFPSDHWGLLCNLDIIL

As a reminder, the inhibition is the drop in the measured response relative to a control, in per cent.

For this assay, the target named is Tyrosyl-DNA phosphodiesterase 2 (Homo sapiens) (UniProt O95551). Description: human TDP2 enzyme inhibitors, primary screen, biochemical, epi absorbance, recombinant enzyme (AID 720702).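 Further: 0% = DMSO with enzyme and 100% = buffer with substrate but no TDP2.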 The conditions noted are these: recombinant TDP2, T5PNP hydrolysis, p-nitrophenol absorbance 415 nm; at 12.8 µM; hits give high values. The essentials: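 System: recombinant human TDP2 / Amount: 120 nM TDP2 per well / Also added: 5 mM T5PNP chromogenic substrate / Doses: 12.8 µM single point, 1% DMSO / Incubation: 2 h at 37 °C / Detection: p-Nitrophenol epi absorbance / Evaluation: % inhibition relative to enzyme-containing and enzyme-free wells / Repeats: singlicate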
Regarding `CCOC(=O)c1ccc(NP(C)(=O)Oc2ccc(F)cc2)cc1` (configuration not stated), the inhibition is inactive: 5.1%. As for `COc1ccc(OP(C)(=O)Nc2ccc(SC(F)(F)F)cc2)cc1` (configuration not stated), the inhibition was inactive: 2.62%. In the case of `CCN(CC)CCCNc1ccccc1[N+](=O)[O-].O=[N+]([O-])c1cc([N+](=O)[O-])c(O)c([N+](=O)[O-])c1`, the inhibition is inactive: -12.1%. Turning to `CP(=O)(Nc1ccccc1)Oc1ccc(F)cc1` (configuration not stated), the inhibition was inactive: 7.31%. The figure for `O=[N+]([O-])c1cc([N+](=O)[O-])c(OC2CCCCC2O)c([N+](=O)[O-])c1` (configuration not stated) is inactive: 0.29%. For the compound `CCCCCOc1ccc(NP(C)(=O)Oc2ccc(Cl)cc2Cl)cc1` (configuration not stated), the inhibition is inactive: 7.31%. The figure for `Cc1c([N+](=O)[O-])cc([N+](=O)[O-])c(Br)c1[N+](=O)[O-]` is inactive: -12.5%.

On to `CCN(CC)CCCOC(=O)C(O)(c1ccccc1)C1CCCCC1` (configuration not stated), for which the inhibition was inactive: -4.46%. The result for `CP(=O)(Nc1ccccc1F)Oc1ccccc1` (configuration not stated) reads inactive: -11.4%; that for `CC(C)c1ccc(OP(C)(=O)Nc2ccc(SC(F)(F)F)cc2)cc1` (configuration not stated), inactive: -5.12%. The result for `O=[N+]([O-])c1cc([N+](=O)[O-])c(Nc2ccc(Cl)cc2)c([N+](=O)[O-])c1` reads inactive: -6%. The figure for `COc1ccc2c(c1O)-c1c(O)c(OC)cc3c1[C@H](C2)[N+](C)(C)CC3.O=[N+]([O-])c1cc([N+](=O)[O-])c([O-])c([N+](=O)[O-])c1[O-]` is inactive: 1.96%.

Consider `O=C(OC1CN2CCC1CC2)c1ccc([N+](=O)[O-])cc1` (configuration not stated), for which the inhibition was inactive: -11.4%. The result for `O=C(OCCN1CCN(CCOCc2ccccc2)CC1)C(O)(c1ccccc1)c1ccccc1` reads inactive: 9.71%; that for `COc1ccc(OP(C)(=O)Nc2ccccn2)cc1` (configuration not stated), inactive: -3.09%. The figure for `CN(C)CCOC(=O)C(O)(c1ccccc1)C1CCCC1` (configuration not stated) is inactive: -8.58%; for `COc1ccccc1OP(C)(=O)Nc1ccc(Br)cc1` (configuration not stated) it is inactive: -6.12%.

`COc1ccccc1OP(C)(=O)Nc1ccc(C)cc1C` (configuration not stated): the inhibition was inactive: 2.99%.

Take `CP(=O)(Nc1ccccn1)Oc1ccccc1` (configuration not stated): the inhibition was inactive: -6.82%. The result for `CCc1ccc(OP(C)(=O)O)cc1` reads inactive: 1.32%; that for `O=[N+]([O-])c1cc([N+](=O)[O-])c(Nc2ccccn2)c([N+](=O)[O-])c1`, inactive: 7.17%; that for `Cc1c(NP(C)(=O)Oc2ccc(C(C)C)cc2)c(=O)n(-c2ccccc2)n1C` (configuration not stated), inactive: 2.19%. The figure for `COc1ccccc1OP(C)(=O)Nc1ccc(C)c(C)c1` (configuration not stated) is inactive: 3.66%; for `COc1ccc(OP(C)(=O)Nc2ccccc2Br)cc1` (configuration not stated) it is inactive: 7.19%. With `Cc1cc(C)cc(OP(C)(=O)Nc2cccc(C(F)(F)F)c2)c1` (configuration not stated), the inhibition is inactive: -0.7%. For the compound `O=C1C(O)=C([N+](=O)[O-])C(=O)C(O)=C1[N+](=O)[O-]`, the inhibition was inactive: 1.21%. With `CP(=O)(OCCOc1ccccc1)OCCOc1ccccc1`, the inhibition was inactive: -12.6%. As for `CP(=O)(Nc1ccc(Cl)cc1Cl)Oc1ccccc1` (configuration not stated), the inhibition is inactive: -9.65%. The figure for `CCCCCCCCCCCCCCCC1C[N+](C)(C)CCOP(C)(=O)O1` (configuration not stated) is inactive: -9.49%; for `CCOC(=O)c1ccc(NP(C)(=O)Oc2ccc(Cl)cc2)cc1` (configuration not stated) it is inactive: 0.09%; for `CP(=O)(OC12CC3CC(CC(C3)C1)C2)OC12CC3CC(CC(C3)C1)C2` it is inactive: -0.29%. Consider `Nc1ccc2c(ccc3cccnc32)n1.O=[N+]([O-])c1cc([N+](=O)[O-])c(O)c([N+](=O)[O-])c1`, for which the inhibition was inactive: 13.8%. Consider `O=C(OCCCN1CCCC1)C(O)(c1ccccc1)C1CCCCC1` (configuration not stated), for which the inhibition is inactive: 0.08%. The figure for `COc1ccccc1OP(C)(=O)Nc1c(C)n(C)n(-c2ccccc2)c1=O` (configuration not stated) is inactive: 10.8%. The figure for `CCc1ccc(OP(C)(=O)Nc2cccnc2)cc1` (configuration not stated) is inactive: 0.97%; for `CP(=O)(Oc1ccccc1)N1CCOC1=O` (configuration not stated) it is inactive: 9.05%; for `COc1ccc(OP(C)(=O)Nc2ccc(Br)cc2)cc1` (configuration not stated) it is inactive: -4.56%. The figure for `CCN(CC)CC(O)COC(=O)C(O)(c1ccccc1)C1CCCCC1` (configuration not stated) is inactive: 1.59%. Regarding `CN(C)C(=O)c1c([N+](=O)[O-])cc([N+](=O)[O-])cc1[N+](=O)[O-]`, the inhibition was inactive: 3.74%. The result for `CC(C)(C)c1ccc(OP(C)(=O)O)cc1` reads inactive: -12.9%. The result for `COc1ccccc1OP(C)(=O)Nc1ccccc1Br` (configuration not stated) reads inactive: -4.5%; that for `CP(=O)(Nc1ccc(Cl)cc1)Oc1ccc(F)cc1` (configuration not stated), inactive: -8.4%.

Values taken from PubChem BioAssay AID720702 (The Scripps Research Institute Molecular Screening Center, 2013).
